## Binding of CDR-mutated scFvs to a peptide of the spike HR2 region

The measurements come from Engelhart et al. 2022 (doi:10.1038/s41597-022-01779-4) through the FLAb antibody collection.

Antigen: PDVDLGDISGINAS, a 14-residue peptide of the SARS-CoV-2 spike HR2 region.

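The library (AAYL52) carries one to three amino acid substitutions per variant, with no insertions or deletions. Affinity was read by AlphaSeq, a pooled yeast mating assay with surface-displayed partners. Mating (16 h, 30 °C) was followed by selection of diploids and sequencing of their barcodes. A regression on co-assayed BCL2-family reference pairs converts the normalised counts of each replicate to an apparent Kd. Each pool was mated in three replicate cultures.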

Parent: Ab-95, a human scFv built as VH, the linker GGGGSGGGGSGGGGS, VL. Only the CDRs of the light chain vary.
VH: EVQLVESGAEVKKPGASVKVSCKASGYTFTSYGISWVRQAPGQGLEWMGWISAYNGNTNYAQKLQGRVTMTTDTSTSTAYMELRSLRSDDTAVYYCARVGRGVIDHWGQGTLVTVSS
VL: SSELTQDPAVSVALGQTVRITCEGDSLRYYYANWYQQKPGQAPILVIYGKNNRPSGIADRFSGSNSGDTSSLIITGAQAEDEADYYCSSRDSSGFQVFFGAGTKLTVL

Positions count from residue 1 of the parent VL; P54M puts M in place of P.
Values are apparent Kd, the geometric mean of the replicates that gave a signal; lower means stronger binding.
An entry "not detected" has no value in the source: the pair was not observed among the diploids in any replicate. This suggests poor binding but is not conclusive.
Background: pairings of library AAYL52 with three empty control strains gave a value in 28% of cases (median 8.2 µM, 5th percentile 800 nM). Values in that range, when seen in few replicates, are hard to tell from nonspecific mating.

changes	apparent Kd	replicates with signal
P54M+D91R	24 µM	2/3
G49D+R90D	1.0 µM	2/3
D25M+G49V+S55K	4.0 µM	3/3
N33A+N51L+P54T	3.0 µM	3/3
G24K+Y31D+A32T	51 nM	3/3
Y31L+N51W	10 µM	1/3
R28G+G49S+V97K	8.3 µM	2/3
R28I+R90C+S92G	2.5 µM	3/3
K50Y+S93Y+F98K	not detected	0/3
G49W+K50I+D91S	19 µM	3/3
E23Y+K50Q+D91T	460 nM	3/3
D25W+Y31V+S92L	7.6 µM	1/3
Y31T+F98E	330 nM	1/3
K50P+R53M+S93E	3.5 µM	2/3
Y29F+S89V+S93N	970 nM	3/3
S26E+A32N+N51K	31 µM	1/3
L27I+A32N+G94R	2.0 µM	2/3
D25N+Y31V+F95Y	660 nM	3/3
S26R+Y30R+K50Y	5.5 µM	2/3
D25W+R28M+A32L	not detected	0/3
A32K+N51R+Q96E	not detected	0/3
L27M+S93A+F95M	520 nM	3/3
D25H+N51V+R53W	25 µM	1/3
D25A+R90Q+F98T	86 µM	1/3
E23A+G49A+S88T	740 µM	1/3

Second part, the sequence after the result:

apparent Kd	replicates with signal	changes
410 nM	3/3	D25R+Y29W+S92G
not detected	0/3	R28W+P54W+Q96D
8.7 nM	3/3	Y31D+S55H+V97G
790 nM	3/3	Y30R+R53H+F95G
71 µM	1/3	G24W+G49Y+S93M
150 nM	2/3	S88D+S92K+S93Q
7.9 µM	2/3	D25E+P54Y+F95P
56 µM	2/3	A32E+N33T+G49K
270 nM	3/3	L27Y+N33T+S92Q
2.5 µM	3/3	S26Q+F95A+Q96M
6.5 µM	1/3	N52C+S92D+F98L
1.0 µM	3/3	G24R+R28I
not detected	0/3	R28D+D91C+V97E
not detected	0/3	Y30L+R53Y+D91Q
26 nM	3/3	Y31N+S88I+F95A
50 µM	2/3	Y29E+R53L+S93Y
250 nM	3/3	R28L+S88D+R90F
10 µM	1/3	N51I+P54N+S55F
9.3 nM	3/3	Y31A+G49N+S88M
250 nM	3/3	S89V+S93G+F98H
13 µM	1/3	S26Y+L27N+G49E
1.9 µM	2/3	D25H+N52K+S93R
1.1 µM	3/3	K50G+P54G+S93K
3.6 µM	3/3	D25Y+Y31V+Q96G
74 µM	1/3	A32H+S89H+R90L

The first 8 entries again:

changes	apparent Kd	replicates with signal
P54M+D91R	24 µM	2/3
G49D+R90D	1.0 µM	2/3
D25M+G49V+S55K	4.0 µM	3/3
N33A+N51L+P54T	3.0 µM	3/3
G24K+Y31D+A32T	51 nM	3/3
Y31L+N51W	10 µM	1/3
R28G+G49S+V97K	8.3 µM	2/3
R28I+R90C+S92G	2.5 µM	3/3